Earlier results on 1 molecule are cited in US20110002843A1, “METHOD OF DETECTING MYOCARDIAL DYSFUNCTION IN PATIENTS HAVING A HISTORY OF ASTHMA OR BRONCHOSPASM” (priority 2005, published 2011).

The chains behind the UniProt entries cited, without tags or fusion partners.
UniProt P47745, whole entry: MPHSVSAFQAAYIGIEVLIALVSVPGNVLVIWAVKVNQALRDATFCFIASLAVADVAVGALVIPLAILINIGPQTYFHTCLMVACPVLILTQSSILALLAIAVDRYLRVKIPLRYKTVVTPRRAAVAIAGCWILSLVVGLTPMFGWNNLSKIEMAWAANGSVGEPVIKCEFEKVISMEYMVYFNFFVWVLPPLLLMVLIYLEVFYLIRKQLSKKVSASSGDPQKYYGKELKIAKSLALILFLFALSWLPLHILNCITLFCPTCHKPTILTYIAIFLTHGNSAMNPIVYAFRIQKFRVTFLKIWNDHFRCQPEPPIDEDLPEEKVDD

For orientation: EC50 means the concentration giving half of the maximal effect.

The series concerns the target A1 adenosine receptor (Cavia porcellus, UniProt P47745). Set-up: a Langendorff guinea pig heart preparation; from tissue; host or cells: isolated perfused guinea pig heart (Langendorff). The settings on record: heart paced at 260 beats/min; data of U.S. Pat. No. 5,278,150; read-out: EC50—SQPR (A1); cited from earlier work.

Regarding `COc1ccc(C=NNc2nc(N)c3ncn([C@@H]4O[C@H](CO)[C@@H](O)[C@H]4O)c3n2)cc1` [F, 2-[2-(4-Methoxybenzylidene)hydrazino]adenosine], the EC50 was 22.9 µM.
